The target in the test is Human factor D (Homo sapiens (Human), UniProt P00746). The test can be described thus: Human Factor D Assay. It is filed as biochemical. On the procedure: Human factor D (purified from human serum, Complement Technology, Inc.) at 80 nM final concentration is incubated with test compound at various concentrations for 5 minutes at room temperature in 50 mM Tris, 1M NaCl, pH 7.5. A synthetic substrate Z-L-Lys-SBzl and DTNB (Ellman's reagent) are added to final concentrations of 100 μM each. The increase in color is recorded at OD405 nm in a microplate in kinetic mode over 30 minutes with 30 second time points in a spectrofluorimeter. IC50 values are calculated by non-linear regression from the percentage of inhibition of complement factor D activity as a function of test compound concentration.

Amino acid sequences for entries named in this document (tags omitted). Residues count along the entry.
UniProt P00746, 26-253: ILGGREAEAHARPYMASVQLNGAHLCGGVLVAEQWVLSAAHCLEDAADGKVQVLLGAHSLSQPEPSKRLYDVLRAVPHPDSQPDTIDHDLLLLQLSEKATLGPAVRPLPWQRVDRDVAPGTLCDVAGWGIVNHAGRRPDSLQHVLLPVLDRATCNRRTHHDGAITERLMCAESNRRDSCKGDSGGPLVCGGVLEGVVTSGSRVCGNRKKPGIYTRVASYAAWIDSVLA

Where [1] appears, read: human factor D 80 nM, substrate Z-L-Lys-SBzl, DTNB.

The structures appear in SMILES notation. Like-named read-outs stand apart in the source and are kept apart here.

Broadly, the IC50 is the concentration at which inhibition is half-maximal. `CC(=O)c1nn(CC(=O)N2C[C@H](F)C[C@H]2C(=O)Nc2cccc(Br)n2)c2ccc(-c3cnc(C)nc3)cc12` [Compound 165, (2S,4R)-1-(2-(3-acetyl-5-(2-methylpyrimidin-5-yl)-1H-indazol-1-yl)acetyl)-N-(6-bromopyridin-2-yl)-4-fluoropyrrolidine-2-carboxamide] displayed an IC50 of less than 1 µM. Under setting [1], `NC(=O)c1nn(CC(=O)N2C[C@H](F)C[C@H]2C(=O)Nc2cncc(Cl)c2)c2ccc(-c3ccnnc3)cc12` [Compound 67, 1-(2-((2S,4R)-2-(5-chloropyridin-3-ylcarbamoyl)-4-fluoropyrrolidin-1-yl)-2-oxoethyl)-5-(pyridazin-4-yl)-1H-indazole-3-carboxamide] yielded an IC50 of 1 to 10 µM. Regarding `NC(=O)c1nn(CC(=O)N2C[C@H](F)C[C@H]2C(=O)Nc2nc(-c3ccccc3Cl)ns2)c2ccc(-c3ccnnc3)cc12` [Compound 114, 1-(2-((2S,4R)-2-(3-(2-chlorophenyl)-1,2,4-thiadiazol-5-ylcarbamoyl)-4-fluoropyrrolidin-1-yl)-2-oxoethyl)-5-(pyridazin-4-yl)-1H-indazole-3-carboxamide], under setting [1], the IC50 is 1 to 10 µM.
